Laboratory results published in ChEMBL document CHEMBL1127517 (J Med Chem, 1994).

Sequences of proteins named here, by UniProt entry; tags and fusion partners are left off.
UniProt P23977, whole entry: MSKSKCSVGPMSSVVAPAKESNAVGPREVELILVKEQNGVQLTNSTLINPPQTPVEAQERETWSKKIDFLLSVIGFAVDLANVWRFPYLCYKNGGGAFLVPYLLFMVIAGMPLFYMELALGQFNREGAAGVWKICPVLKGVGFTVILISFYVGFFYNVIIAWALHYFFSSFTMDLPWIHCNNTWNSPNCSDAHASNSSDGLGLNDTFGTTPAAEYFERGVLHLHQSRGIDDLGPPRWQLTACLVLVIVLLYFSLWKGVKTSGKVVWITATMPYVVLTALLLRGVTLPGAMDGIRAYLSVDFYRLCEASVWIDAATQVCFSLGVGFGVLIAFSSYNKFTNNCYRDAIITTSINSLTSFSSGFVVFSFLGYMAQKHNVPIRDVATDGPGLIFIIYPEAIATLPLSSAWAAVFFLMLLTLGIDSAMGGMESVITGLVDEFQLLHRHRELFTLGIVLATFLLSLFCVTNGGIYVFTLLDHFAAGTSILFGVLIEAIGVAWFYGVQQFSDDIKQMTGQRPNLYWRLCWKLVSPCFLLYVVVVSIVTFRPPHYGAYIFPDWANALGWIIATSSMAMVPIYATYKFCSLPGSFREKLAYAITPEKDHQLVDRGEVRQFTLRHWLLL

Target: Sodium-dependent dopamine transporter (Rattus norvegicus, UniProt P23977)
Experiment: Inhibitory constant towards reuptake of [125I]-12 from dopamine transporter in rat striatal membranes
Assay type: cell membranes, Membrane

- Ki: 400 nM
Structure (SMILES): Fc1ccc([C@@H]2CCNC[C@H]2COc2ccc3c(c2)OCO3)cc1 [PAROXETINE]
